Target: Ryanodine receptor 1 (Homo sapiens, UniProt P21817)
Experiment: Binding affinity to RYR1 channels by calcium mobilization assay

By UniProt entry, the sequences of proteins in these tests, tags left out. Where a name states a change or a piece, a line headed by the entry shows the natural chain unless it says otherwise.
UniProt P21817: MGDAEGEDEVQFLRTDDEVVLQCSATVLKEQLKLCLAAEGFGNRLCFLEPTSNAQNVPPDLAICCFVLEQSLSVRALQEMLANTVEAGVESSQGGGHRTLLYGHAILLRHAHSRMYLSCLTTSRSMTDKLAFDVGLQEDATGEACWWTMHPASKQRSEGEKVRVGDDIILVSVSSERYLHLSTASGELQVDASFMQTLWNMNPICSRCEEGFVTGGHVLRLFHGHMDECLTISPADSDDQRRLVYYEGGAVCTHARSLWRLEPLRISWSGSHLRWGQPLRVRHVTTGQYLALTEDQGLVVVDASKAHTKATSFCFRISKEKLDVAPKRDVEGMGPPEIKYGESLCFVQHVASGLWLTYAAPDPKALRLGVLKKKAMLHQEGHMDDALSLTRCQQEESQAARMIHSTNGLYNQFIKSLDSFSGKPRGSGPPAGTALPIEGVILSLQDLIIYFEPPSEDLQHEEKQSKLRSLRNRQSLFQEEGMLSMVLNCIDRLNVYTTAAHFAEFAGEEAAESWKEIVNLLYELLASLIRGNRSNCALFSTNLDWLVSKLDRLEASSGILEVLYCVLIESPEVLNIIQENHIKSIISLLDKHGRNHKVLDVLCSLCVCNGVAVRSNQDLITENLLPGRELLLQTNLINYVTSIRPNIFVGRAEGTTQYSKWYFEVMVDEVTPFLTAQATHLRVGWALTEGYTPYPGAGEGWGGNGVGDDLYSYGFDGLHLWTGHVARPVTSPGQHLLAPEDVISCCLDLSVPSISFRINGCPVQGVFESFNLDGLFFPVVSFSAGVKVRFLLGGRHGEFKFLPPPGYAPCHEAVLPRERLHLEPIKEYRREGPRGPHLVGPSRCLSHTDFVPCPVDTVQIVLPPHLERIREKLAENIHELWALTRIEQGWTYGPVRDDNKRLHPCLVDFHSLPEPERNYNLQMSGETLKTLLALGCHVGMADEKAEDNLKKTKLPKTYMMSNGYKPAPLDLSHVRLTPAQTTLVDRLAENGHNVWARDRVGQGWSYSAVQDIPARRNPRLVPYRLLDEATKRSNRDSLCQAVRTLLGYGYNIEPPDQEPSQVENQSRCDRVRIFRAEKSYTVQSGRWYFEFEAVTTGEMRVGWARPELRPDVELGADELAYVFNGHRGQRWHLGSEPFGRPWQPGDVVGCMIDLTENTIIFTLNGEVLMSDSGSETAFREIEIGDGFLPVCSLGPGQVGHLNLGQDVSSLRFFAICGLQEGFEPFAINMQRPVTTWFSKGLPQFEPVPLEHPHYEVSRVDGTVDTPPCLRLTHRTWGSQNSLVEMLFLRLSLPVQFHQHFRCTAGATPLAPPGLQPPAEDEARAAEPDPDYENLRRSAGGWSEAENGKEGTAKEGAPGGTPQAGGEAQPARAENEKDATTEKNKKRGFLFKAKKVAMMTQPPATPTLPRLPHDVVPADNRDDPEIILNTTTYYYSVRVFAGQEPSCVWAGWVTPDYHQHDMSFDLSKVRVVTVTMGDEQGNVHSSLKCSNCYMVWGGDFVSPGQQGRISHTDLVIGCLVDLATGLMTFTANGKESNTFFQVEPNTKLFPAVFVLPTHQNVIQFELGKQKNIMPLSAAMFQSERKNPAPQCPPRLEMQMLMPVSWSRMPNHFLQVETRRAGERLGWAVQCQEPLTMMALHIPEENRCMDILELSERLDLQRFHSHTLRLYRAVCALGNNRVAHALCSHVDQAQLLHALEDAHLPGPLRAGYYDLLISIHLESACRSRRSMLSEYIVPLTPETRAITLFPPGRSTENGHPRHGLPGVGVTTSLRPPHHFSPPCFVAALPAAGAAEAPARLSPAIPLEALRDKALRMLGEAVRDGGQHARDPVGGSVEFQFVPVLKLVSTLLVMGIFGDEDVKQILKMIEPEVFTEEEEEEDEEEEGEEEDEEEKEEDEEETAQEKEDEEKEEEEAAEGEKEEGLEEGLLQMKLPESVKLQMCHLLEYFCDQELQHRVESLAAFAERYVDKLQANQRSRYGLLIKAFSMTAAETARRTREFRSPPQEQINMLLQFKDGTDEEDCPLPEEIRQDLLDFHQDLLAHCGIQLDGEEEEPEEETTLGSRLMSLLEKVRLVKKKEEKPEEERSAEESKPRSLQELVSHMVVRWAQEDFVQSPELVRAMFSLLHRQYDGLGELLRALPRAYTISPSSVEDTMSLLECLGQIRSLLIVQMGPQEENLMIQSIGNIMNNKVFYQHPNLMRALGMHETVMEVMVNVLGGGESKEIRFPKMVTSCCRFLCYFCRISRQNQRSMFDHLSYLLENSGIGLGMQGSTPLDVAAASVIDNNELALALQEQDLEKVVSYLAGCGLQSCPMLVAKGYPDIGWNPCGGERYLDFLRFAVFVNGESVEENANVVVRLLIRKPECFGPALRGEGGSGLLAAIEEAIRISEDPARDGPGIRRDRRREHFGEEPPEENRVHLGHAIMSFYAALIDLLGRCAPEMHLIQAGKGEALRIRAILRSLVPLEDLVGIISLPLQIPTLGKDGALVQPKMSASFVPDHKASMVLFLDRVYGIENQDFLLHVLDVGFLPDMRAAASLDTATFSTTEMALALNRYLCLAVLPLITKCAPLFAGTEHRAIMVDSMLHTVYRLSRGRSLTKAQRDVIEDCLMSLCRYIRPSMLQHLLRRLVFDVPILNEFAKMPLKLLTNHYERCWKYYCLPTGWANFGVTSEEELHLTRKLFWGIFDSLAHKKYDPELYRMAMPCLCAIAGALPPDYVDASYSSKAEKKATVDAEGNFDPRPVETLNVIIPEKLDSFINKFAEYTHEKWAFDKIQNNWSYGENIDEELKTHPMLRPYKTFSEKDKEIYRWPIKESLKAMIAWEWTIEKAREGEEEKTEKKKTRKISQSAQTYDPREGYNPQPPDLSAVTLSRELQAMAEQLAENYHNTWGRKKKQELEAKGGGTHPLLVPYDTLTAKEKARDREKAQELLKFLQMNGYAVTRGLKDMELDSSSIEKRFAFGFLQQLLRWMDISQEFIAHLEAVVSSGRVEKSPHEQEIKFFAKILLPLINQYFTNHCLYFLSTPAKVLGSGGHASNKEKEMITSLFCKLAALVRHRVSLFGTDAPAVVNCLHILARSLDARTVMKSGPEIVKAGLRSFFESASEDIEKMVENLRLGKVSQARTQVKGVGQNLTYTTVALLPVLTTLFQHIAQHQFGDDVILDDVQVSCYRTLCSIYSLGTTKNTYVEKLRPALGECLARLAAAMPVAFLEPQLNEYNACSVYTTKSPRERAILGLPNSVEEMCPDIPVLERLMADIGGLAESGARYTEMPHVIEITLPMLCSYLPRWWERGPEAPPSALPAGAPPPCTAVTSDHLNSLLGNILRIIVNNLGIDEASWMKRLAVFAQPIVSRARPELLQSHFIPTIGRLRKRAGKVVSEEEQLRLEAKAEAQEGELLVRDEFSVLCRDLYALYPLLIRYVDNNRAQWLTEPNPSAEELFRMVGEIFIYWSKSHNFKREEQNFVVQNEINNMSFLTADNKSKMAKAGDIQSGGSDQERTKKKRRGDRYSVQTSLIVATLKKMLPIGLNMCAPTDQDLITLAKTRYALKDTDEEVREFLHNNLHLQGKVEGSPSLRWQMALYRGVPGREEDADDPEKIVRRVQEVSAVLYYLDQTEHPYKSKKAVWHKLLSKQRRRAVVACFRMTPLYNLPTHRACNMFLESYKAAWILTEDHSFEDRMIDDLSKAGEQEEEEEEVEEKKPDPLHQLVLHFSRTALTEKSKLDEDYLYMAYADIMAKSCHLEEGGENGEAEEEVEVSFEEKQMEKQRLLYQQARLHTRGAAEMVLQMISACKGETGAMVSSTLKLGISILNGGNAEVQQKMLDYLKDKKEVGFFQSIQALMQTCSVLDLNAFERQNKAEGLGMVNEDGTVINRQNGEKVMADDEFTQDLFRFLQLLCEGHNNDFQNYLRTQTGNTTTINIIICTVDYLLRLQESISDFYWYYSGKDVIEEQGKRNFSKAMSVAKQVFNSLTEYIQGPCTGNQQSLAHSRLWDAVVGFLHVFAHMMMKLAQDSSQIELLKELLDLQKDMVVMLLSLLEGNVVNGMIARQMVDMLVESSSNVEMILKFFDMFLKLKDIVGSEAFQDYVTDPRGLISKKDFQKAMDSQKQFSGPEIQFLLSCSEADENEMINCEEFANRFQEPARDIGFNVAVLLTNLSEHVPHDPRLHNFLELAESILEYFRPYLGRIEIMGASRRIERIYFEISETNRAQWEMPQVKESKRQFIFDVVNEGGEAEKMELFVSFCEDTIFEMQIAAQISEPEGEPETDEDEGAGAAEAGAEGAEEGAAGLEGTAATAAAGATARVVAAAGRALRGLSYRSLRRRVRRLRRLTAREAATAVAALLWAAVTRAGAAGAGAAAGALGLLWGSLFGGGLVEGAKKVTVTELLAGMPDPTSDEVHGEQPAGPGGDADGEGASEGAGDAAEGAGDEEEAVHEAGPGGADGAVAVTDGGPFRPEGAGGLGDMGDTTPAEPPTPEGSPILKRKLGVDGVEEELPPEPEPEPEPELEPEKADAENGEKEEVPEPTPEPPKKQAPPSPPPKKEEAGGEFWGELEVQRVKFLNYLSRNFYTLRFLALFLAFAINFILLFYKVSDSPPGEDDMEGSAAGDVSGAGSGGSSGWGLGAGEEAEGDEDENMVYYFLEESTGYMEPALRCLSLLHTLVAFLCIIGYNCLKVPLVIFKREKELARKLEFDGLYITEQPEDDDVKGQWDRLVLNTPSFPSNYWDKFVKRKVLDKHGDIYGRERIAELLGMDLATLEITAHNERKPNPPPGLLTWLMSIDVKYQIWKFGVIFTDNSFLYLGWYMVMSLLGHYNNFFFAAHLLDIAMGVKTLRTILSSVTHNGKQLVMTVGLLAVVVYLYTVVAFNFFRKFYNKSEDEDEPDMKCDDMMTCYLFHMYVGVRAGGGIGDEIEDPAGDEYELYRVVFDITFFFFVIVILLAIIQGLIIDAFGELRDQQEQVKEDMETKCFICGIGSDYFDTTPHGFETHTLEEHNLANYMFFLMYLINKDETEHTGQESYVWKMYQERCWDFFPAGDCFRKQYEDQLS

## O=C1N/C=C/c2ccc(c(Br)c2)Oc2cc(cc(Br)c2O)CCNC(=O)/C(=N/O)Cc2ccc(c(Br)c2)Oc2cc(cc(Br)c2O)C/C1=N\O
  EC50: 6.3 µM

Reference: ChEMBL document CHEMBL1143439, “Open-chain half-bastadins mimic the effects of cyclic bastadins on calcium homeostasis in cultured neurons” (Bioorg Med Chem Lett, 2008)
